Tests used:
JAK1 [1] = target: T1, JAK1 (Homo sapiens, UniProt P23458); conditions: read-out: GI50 JAK1; Ba/F3 cell-based
JAK1 [2] = target: T1, JAK1; conditions: read-out: IC50 JAK1
JAK3 = target: T2, JAK3 (Homo sapiens, UniProt P52333); conditions: read-out: IC50 JAK3
T2 sequence (P52333 1-1124): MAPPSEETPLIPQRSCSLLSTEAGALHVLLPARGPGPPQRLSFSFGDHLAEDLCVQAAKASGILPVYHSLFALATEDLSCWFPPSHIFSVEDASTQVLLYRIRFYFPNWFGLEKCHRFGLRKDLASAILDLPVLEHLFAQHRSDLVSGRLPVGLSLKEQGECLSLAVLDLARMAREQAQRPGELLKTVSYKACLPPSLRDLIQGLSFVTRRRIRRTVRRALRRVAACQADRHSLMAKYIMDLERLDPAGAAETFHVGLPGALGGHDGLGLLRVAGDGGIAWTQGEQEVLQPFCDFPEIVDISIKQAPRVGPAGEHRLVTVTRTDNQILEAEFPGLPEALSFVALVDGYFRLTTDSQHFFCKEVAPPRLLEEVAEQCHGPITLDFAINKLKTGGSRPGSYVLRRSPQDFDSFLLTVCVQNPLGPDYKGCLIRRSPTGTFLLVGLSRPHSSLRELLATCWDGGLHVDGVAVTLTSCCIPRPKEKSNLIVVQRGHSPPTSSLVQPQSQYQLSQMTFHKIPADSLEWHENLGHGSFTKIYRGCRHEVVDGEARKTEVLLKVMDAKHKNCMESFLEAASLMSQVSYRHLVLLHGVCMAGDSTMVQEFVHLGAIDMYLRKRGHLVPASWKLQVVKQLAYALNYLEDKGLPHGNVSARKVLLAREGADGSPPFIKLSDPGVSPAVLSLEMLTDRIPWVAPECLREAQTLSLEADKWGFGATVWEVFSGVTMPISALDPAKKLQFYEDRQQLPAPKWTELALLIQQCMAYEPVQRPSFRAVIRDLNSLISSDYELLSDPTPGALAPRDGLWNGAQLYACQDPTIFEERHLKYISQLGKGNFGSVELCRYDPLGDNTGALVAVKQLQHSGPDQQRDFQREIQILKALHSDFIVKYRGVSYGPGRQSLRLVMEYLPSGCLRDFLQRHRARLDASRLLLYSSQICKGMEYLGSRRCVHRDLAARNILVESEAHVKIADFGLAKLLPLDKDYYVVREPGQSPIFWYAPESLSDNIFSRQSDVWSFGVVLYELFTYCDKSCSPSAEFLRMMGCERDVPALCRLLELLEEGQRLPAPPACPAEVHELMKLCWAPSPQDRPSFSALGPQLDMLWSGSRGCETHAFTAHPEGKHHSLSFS

Chains of the proteins cited; added tags and fusions are not shown. Lines headed by an entry give the natural chain unless they say otherwise; changes in a name come on top.
UniProt P23458: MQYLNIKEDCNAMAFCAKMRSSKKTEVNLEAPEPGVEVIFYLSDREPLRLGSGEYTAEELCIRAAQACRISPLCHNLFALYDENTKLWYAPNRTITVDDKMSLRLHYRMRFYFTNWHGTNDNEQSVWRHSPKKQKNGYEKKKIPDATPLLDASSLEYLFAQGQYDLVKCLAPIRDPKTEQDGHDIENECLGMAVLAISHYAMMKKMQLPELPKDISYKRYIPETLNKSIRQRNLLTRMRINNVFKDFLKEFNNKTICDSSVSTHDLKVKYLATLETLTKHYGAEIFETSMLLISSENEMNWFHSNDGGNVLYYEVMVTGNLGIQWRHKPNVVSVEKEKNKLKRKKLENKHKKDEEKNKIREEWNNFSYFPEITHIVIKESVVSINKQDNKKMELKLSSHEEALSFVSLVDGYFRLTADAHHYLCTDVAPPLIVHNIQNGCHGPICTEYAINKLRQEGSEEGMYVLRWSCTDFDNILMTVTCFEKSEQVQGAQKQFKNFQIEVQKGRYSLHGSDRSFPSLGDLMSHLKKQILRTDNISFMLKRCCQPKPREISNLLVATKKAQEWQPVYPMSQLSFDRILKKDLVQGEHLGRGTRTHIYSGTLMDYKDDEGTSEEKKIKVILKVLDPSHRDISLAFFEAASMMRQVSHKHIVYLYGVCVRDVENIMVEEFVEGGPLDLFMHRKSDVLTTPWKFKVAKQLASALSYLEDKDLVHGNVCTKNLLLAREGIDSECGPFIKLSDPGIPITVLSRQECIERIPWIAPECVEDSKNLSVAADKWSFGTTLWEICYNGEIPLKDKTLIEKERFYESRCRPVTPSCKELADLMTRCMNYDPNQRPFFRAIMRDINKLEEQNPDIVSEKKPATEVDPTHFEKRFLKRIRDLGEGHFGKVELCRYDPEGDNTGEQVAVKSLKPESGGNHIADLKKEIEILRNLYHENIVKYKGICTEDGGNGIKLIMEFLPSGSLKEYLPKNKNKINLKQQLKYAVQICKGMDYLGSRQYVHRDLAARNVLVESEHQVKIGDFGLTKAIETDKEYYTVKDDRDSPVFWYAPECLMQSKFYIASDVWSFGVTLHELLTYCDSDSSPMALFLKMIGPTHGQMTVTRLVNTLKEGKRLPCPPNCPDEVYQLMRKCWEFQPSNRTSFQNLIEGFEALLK

Substance: 4-(42S,4S)-1-(4-trifluoromethyl)-2-methylpiperidin-4-yl)amino)-N-methyl-1H-pyrrolo[2,3-b]pyridine-5-carboxamide [57a]
- GI50 (JAK1 [1]): 1.45 nM
- IC50 (JAK1 [2]): 0.017 nM
- IC50 (JAK3): 9.24 nM
